For the test, the target named is T1, G-CSFR (Homo sapiens, UniProt Q99062).
T1 construct: incubation with soluble G-CSFR harvest; made in house
T1 sequence (Q99062 25-627): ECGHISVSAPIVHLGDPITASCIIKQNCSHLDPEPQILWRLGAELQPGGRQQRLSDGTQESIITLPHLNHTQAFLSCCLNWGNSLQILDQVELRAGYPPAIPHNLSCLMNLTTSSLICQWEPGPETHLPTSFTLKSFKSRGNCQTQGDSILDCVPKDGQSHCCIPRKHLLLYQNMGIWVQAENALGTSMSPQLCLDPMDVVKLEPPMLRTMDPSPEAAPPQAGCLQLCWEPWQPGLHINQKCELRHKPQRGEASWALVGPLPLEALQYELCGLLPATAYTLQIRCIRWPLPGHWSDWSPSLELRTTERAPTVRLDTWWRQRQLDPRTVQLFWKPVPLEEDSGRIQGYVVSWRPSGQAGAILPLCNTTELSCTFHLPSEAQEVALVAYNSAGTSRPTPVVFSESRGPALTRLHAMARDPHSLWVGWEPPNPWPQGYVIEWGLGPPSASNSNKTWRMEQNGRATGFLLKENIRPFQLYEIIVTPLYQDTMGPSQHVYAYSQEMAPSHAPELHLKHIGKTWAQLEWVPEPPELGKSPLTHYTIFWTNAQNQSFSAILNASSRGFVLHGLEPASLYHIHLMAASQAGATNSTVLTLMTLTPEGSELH
The test can be described thus: G-CSF radioligand binding assay (SPA beads, 125I labeled G-CSF). The conditions noted are these: reduction by 50% of 125I labeled G-CSF bound to immobilized G-CSFR; overnight at 4° C. How it is done: Streptavidin-coated scintillation proximity assay (SPA) beads (Amersham) were mixed with biotinylated anti-receptor immobilizing antibody (Ab179) followed by incubation with soluble G-CSFR harvest. Receptor-coated SPA beads were washed twice in PBS/0.1% BSA and distributed to wells of a white polystyrene 96-well microtiter plate (Packard). Serial dilutions of peptide or peptide mimetic were mixed with a constant amount of ^125I labeled G-CSF (10^5 cpm; 1290 Ci/mmol) in PBS/0.1% BSA, added to wells containing receptor-coated SPA beads, and incubated overnight at 4° C. The binding of radiolabeled G-CSF to the receptor-coated SPA bead brings the isotope in close proximity to the scintillant, which allows the emitted radiation to stimulate the scintillant to emit light. […] The amount of ^125I labeled G-CSF that was bound at equilibrium was measured by counting the plate in a TopCount (Wallac) microtiter plate luminometer. […] One can determine the concentration at which the peptide or peptide mimetic will reduce by 50% (IC50) the amount of ^125I labeled G-CSF bound to immobilized G-CSFR.

Data on one compound can be found in patent US6716811B1, “Compounds having affinity for the granulocyte-colony stimulating factor receptor (G-CSFR) and associated uses” (Affymax, Inc., priority 2000, dated 2004).

For orientation: IC50 means the concentration at which inhibition is half-maximal. A low value points to inhibition by little substance. `CC(=O)N[C@@H](CO)C(=O)NCC(=O)N[C@@H](Cc1c[nH]c2ccccc12)C(=O)N[C@H](C(=O)N[C@@H](Cc1c[nH]c2ccccc12)C(N)=O)C(C)C` [Example 44, Ac-SGWVW-CONH2]: the IC50 is more than 200 µM.
